## Yeast mating assay 1: variants of the scFv Ab-14

Source: Engelhart et al. 2022 (doi:10.1038/s41597-022-01779-4), MIT Lincoln Laboratory and A-Alpha Bio; data file from the FLAb repository.

The target is the same throughout: PDVDLGDISGINAS, from the HR2 region of SARS-CoV-2 spike.

The variants keep the light chain, the linker and the frameworks of Ab-14 (scFv order VH, three GGGGS repeats, VL).
VH: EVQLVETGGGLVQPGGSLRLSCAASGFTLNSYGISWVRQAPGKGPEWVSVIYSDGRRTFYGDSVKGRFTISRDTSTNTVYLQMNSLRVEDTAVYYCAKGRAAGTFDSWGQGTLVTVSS
VL: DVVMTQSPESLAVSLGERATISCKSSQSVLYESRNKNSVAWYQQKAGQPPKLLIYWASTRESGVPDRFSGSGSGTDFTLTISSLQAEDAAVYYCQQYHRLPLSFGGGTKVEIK

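The library (AAYL49) carries one to three amino acid substitutions per variant, with no insertions or deletions. Affinity was read by AlphaSeq, a pooled yeast mating assay with surface-displayed partners. Binding brings cells together so that they mate, and sequencing counts the barcode pairs among the diploids. The ratio of observed to expected reads was calibrated, replicate by replicate, on BCL2-family standards whose Kd was known from biolayer interferometry. Mating was done three times.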

Each variant is given by its three heavy chain CDRs, as the data file delimits them; those of the parent are GFTLNSYGIS, VIYSDGRRTFYGDSVK, GRAAGTFDS.
Numbers give log10(Kd / nM), so 0 is 1 nM and 3 is 1 µM. Smaller is tighter.
Where no diploid with the target was found in that replicate, the entry reads "n.d.": below detection, most likely a poor binder, though not proof of it.
Three control strains display no target. For library AAYL49, 15% of the pairings with them gave a signal, with a median of 4.06 and one signal in twenty below 2.83, so weak values seen in few replicates may be background. The control count says in how many pairings with the empty strains this scFv gave a signal, with their mean in brackets.
Parent in this assay: reference entry 0.65, copy in this library 4.11 (one replicate of three).

| # | CDR-H1 | CDR-H2 | CDR-H3 | log10 Kd, replicates | empty controls |
|---|---|---|---|---|---|
| 1 | GFTLNSYGIS | HIYSDGRRTFYGDSVI | GRAAGTFDC | 3.63 / 5.03 / 4.76 | 3/9 (3.63) |
| 2 | GFLLNSYAIS | VIYSDGRRTFDGDSVK | GRAAGTFDS | n.d. / n.d. / n.d. | 0/9 |
| 3 | GFTLNSYYIS | VIYSDGRRTFYGDSVT | GRAAGTFDS | n.d. / n.d. / n.d. | 2/9 (4.04) |
| 4 | GNTLNTYGIS | VIYSDGRRTFYGDSCK | GRAAGTFDS | 2.23 / 1.99 / 2.83 | 1/9 (4.15) |
| 5 | AFTLNSYGIS | VIFSDGRRRFYGDSVK | GRAAGTFDS | 4.01 / 3.59 / n.d. | 5/9 (4.22) |
| 6 | GFTLNSYGIS | VIYSDGRRTFYGDSGK | GRAAGTFDW | n.d. / n.d. / n.d. | 0/9 |
| 7 | GFTLNMYEIS | VIYSDGRRTFYGDSVW | GRAAGTFDS | n.d. / n.d. / 2.86 | 0/9 |
| 8 | GFTLNSYGES | VIYMDGRRTFYGDSAK | GRAAGTFDS | 3.56 / n.d. / n.d. | 1/9 (4.57) |
| 9 | GFTLNSYGIS | EIYTDGRRTFDGDSVK | GRAAGTFDS | n.d. / n.d. / n.d. | 2/9 (2.98) |
| 10 | GFTLNSYGIS | VIYSDGRRTFYGDPVK | GRAFGTFDS | n.d. / n.d. / n.d. | 1/9 (4.67) |
| 11 | GFTLNSYMIS | VIYSDGRRTFSGDSVK | GREAGTFDS | n.d. / n.d. / n.d. | 3/9 (3.77) |
| 12 | GFTLNVFGIS | VIYSDGRRTFYGDSVK | GRAAGCFDS | n.d. / n.d. / n.d. | 0/9 |
| 13 | GFTLNSYGIS | VIYSDGRRTFLGDSVK | GSAAGTVDS | 2.18 / 1.76 / 2.57 | 2/9 (2.74) |
| 14 | LFTLNSYGIS | VIYSDGRRTFYNDSVK | GRAAGTFDI | 4.11 / 3.64 / n.d. | 4/9 (4.51) |
| 15 | GFTLNSYHIH | VIYSDYRRTFYGDSVK | GRAAGTFDS | n.d. / n.d. / n.d. | 1/9 (2.94) |
| 16 | GITLNSYGIL | VIYSDGRRTFCGDSVK | GRAAGTFDS | n.d. / n.d. / n.d. | 0/9 |
| 17 | GFTLNSFGIS | TIYSDGRRTFYGDSMK | GRAAGTFDS | n.d. / n.d. / n.d. | 1/9 (4.04) |
| 18 | GFTLNSYGIS | VIYEDGVRTFYGDSNK | GRAAGTFDS | 4.50 / n.d. / 4.90 | 2/9 (3.90) |
| 19 | GFHLNSKGIS | VIHSDGRRTFYGDSVK | GRAAGTFDS | n.d. / n.d. / n.d. | 1/9 (2.88) |
| 20 | GFTLNSYGIS | VIYSDGRRTDYGDSVK | GRAAGRFDS | n.d. / n.d. / n.d. | 0/9 |
| 21 | GFRLNSYGIS | VIYSDGRRTYYRDSVK | GRAAGTFDS | 4.60 / 2.68 / 4.14 | 2/9 (4.19) |
| 22 | PFTLNSYGIS | VIYSDGRRTFYGDVWK | GRAAGTFDS | 3.66 / n.d. / n.d. | 0/9 |
| 23 | GFTLNSYGIS | VIYADGRRTFYGDSVK | GRAYGTFDS | 5.62 / 4.89 / 5.52 | 1/9 (3.94) |
| 24 | GFTLNSYGGS | VIYSDGRRLFYGDSVK | GRAAGTFMS | 2.74 / n.d. / n.d. | 0/9 |
| 25 | GFTLNSYGIS | VIYSDGRRTFYGWSVK | GRAAMTFDS | n.d. / n.d. / n.d. | 1/9 (3.91) |
| 26 | GFTLNSYGIS | VIYSDGRRTFMGDSVK | GRAAGTFDS | 2.80 / 2.15 / 3.03 | 0/9 |
| 27 | GFTLNSYGIS | VIYSDSRRTFGGDSLK | GRAAGTFDS | 3.88 / n.d. / n.d. | 1/9 (3.52) |
| 28 | GFTLNSYGIS | VIYSDHRRTFYIDSVK | GRAHGTFDS | n.d. / n.d. / n.d. | 0/9 |
| 29 | GFTLNSYGIS | VIYSDDERTFYGDSVK | GAAAGTFDS | n.d. / n.d. / n.d. | 1/9 (3.61) |
| 30 | GFRLNSYGIS | VIYSKGRRTFYGDSVK | GRNAGTFDS | n.d. / n.d. / n.d. | 0/9 |
| 31 | GFTLNSYGIS | VIYSDGRRTFYGDSVK | GRCAGRFCS | 0.36 / 0.57 / 0.47 | 4/9 (3.29) |
| 32 | GFTLNSYGIS | VSYSDGRRTFYGKSEK | GRAAGTFDS | n.d. / 4.70 / n.d. | 2/9 (3.75) |
| 33 | GFTLNSYGIS | VIYSIGRRTFVGDSGK | GRAAGTFDS | n.d. / n.d. / n.d. | 0/9 |
| 34 | GFGLNSYGIS | VIGSDGRRTFYGDSVK | GRARGTFDS | n.d. / n.d. / n.d. | 0/9 |
| 35 | GFTLNSYGIS | VIISDGRRTFYGDSVK | GRAKGTFDS | n.d. / 3.60 / n.d. | 1/9 (2.52) |
| 36 | GFTLNSYTIS | VFYSDGRRTFYGDSVK | GRAAFTFDS | n.d. / 2.91 / n.d. | 0/9 |
| 37 | GFTLNSYGIS | VIYSDGRRTFYGDSVK | GRAAGTREC | 1.57 / 2.13 / 1.60 | 0/9 |
| 38 | GFTLNSYGIS | VIYSDGIRTFYGDSVK | GRTAGRFDS | n.d. / n.d. / n.d. | 0/9 |
| 39 | GFTLNSYGIS | VIYSGGRRTFPGDSVK | GRAAGTFDS | n.d. / 2.87 / n.d. | 4/9 (4.42) |
| 40 | GFTLNSYGIS | VIYSDGRRTFYGDSFK | GRAAGCFDW | n.d. / n.d. / n.d. | 0/9 |
| 41 | FFTLNSYGIS | VIYSDGRRTFYGDSVK | GRAAKTSDS | n.d. / n.d. / n.d. | 0/9 |
| 42 | GFTLNSYGIS | VINSDGRRTFYKDSVK | GRAAGTFDS | 5.05 / 3.27 / n.d. | 3/9 (4.41) |
| 43 | CYTLNSYGIS | VIYSDGRRTFYGDSVK | GRAAETFDS | n.d. / 4.87 / n.d. | 5/9 (4.41) |
| 44 | GFTLNSYGRS | VIYSDGRRTFYGDVVK | GREAGTFDS | n.d. / n.d. / 4.14 | 1/9 (3.70) |
| 45 | QFTLNSYGIS | VWYSDGRRTFYGDSVY | GRAAGTFDS | n.d. / n.d. / 4.10 | 0/9 |
| 46 | GFVLNSYGIS | VNHSDGRRTFYGDSVK | GRAAGTFDS | 4.93 / n.d. / n.d. | 2/9 (4.63) |
| 47 | TFTLNSYYIS | VIYSDIRRTFYGDSVK | GRAAGTFDS | n.d. / 3.69 / 4.81 | 5/9 (4.31) |
| 48 | GFTLSQYGIS | VIYSDGRRTFYGDSVK | GRAAGTFDS | 2.70 / 2.48 / 3.41 | 0/9 |
| 49 | GFQLNSYGIS | VIYSDGRRTFYGDSVK | GRNAGTFDS | 0.37 / 0.61 / 0.56 | 3/9 (5.38) |

The last 7 entries again:

CDR-H1,CDR-H2,CDR-H3,"log10 Kd, replicates",empty controls
CYTLNSYGIS,VIYSDGRRTFYGDSVK,GRAAETFDS,n.d. / 4.87 / n.d.,5/9 (4.41)
GFTLNSYGRS,VIYSDGRRTFYGDVVK,GREAGTFDS,n.d. / n.d. / 4.14,1/9 (3.70)
QFTLNSYGIS,VWYSDGRRTFYGDSVY,GRAAGTFDS,n.d. / n.d. / 4.10,0/9
GFVLNSYGIS,VNHSDGRRTFYGDSVK,GRAAGTFDS,4.93 / n.d. / n.d.,2/9 (4.63)
TFTLNSYYIS,VIYSDIRRTFYGDSVK,GRAAGTFDS,n.d. / 3.69 / 4.81,5/9 (4.31)
GFTLSQYGIS,VIYSDGRRTFYGDSVK,GRAAGTFDS,2.70 / 2.48 / 3.41,0/9
GFQLNSYGIS,VIYSDGRRTFYGDSVK,GRNAGTFDS,0.37 / 0.61 / 0.56,3/9 (5.38)